## Yeast mating assay B: variants of the scFv Ab-14

From the AlphaSeq antibody data of Li et al. 2023 (doi:10.1038/s41467-023-39022-2), copy in the FLAb collection.

Target: peptide PDVDLGDISGINAS, taken from heptad repeat 2 (HR2) of SARS-CoV-2 spike.

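The parent was found by panning a naive human phage display library on the peptide. Designed CDR sequences, proposed from the first random library and measured here. Several design methods are mixed in this list. Affinity was read by AlphaSeq, a pooled yeast mating assay with surface-displayed partners. After mating in shaken culture at 30 °C for 16 h, diploids were selected and their barcode pairs sequenced. Scores were corrected for input abundance and mapped to Kd with protein pairs of known affinity run in the same pool. Mating was done six times.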

Parent scFv Ab-14: VH joined to VL by a 15-residue (Gly4Ser)3 linker. Changes lie in the light chain CDRs alone.
VH: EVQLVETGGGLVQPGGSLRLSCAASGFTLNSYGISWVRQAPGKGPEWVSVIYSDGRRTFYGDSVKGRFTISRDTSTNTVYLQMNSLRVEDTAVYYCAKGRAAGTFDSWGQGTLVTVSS
VL: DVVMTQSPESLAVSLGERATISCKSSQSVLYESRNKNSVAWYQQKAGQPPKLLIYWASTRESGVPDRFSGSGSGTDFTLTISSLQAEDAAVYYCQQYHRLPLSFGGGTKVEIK

The parent's light chain CDRs are KSSQSVLYESRNKNSVA, WASTRES, QQYHRLPLS; each variant's own CDRs replace them letter for letter.
This list holds designs with at most six substitutions.
Kd is apparent (estimated from mating counts) and averaged on the log scale over replicates with a signal. Smaller is tighter.
An entry "no signal" has no value in the source: the pair was not observed among the diploids in any replicate. This suggests poor binding but is not conclusive.
The range of this assay differs from that of the first round, and the authors advise against merging the two.
Three control strains display no target. For all light chain designs, 4% of the pairings with them gave a signal, with a median of 430 nM and one signal in twenty below 38 nM, so weak values seen in few replicates may be background.
The authors' rule: three or more of the six replicates give a measured affinity, fewer mean a poor binder.
Of ten entries with the parent sequence, four were seen in most replicates (averages 2.2 nM to 240 nM), three in one and three in none, so single entries are noisy.

Variant FSSQSVLYESRNFNSVA / HASTRED / QQYHRLPLS gave 2.7 nM (6 of 6 replicates).
Variant KPSQSVLYESRNKNSVA / WASTRES / NQYHRLPLS gave no signal (0 of 6 replicates).
Variant KLSQSNLYESRNKNSVA / NASTRMS / QQYHRLPLS gave 2.2 nM (6 of 6 replicates).
Variant KVSQSNLYESRNKNSVA / NASTRLS / QQYHRLPLS gave 2.1 nM (6 of 6 replicates).
Variant KLPQSWLYESRNKNNVA / NASTRES / QQYHRLPLS gave 420 pM (6 of 6 replicates).
Variant KLSQSVLMESRNKNSVA / EASTRES / QQYHRLPLS gave 520 pM (6 of 6 replicates).
Variant KLQQSELGESRNMNSVA / HASTRES / QQYHRLPLS gave 7.9 nM (6 of 6 replicates).
Variant KFPQSVLYESRNKNSVA / EASTRES / QQYHRLPLS gave 310 pM (6 of 6 replicates).
Variant KLSQSELYESRNFNSVA / NASTRES / QQYHRLPLS gave 1.9 nM (6 of 6 replicates).
Variant KCSQALGYESRNKNSVA / WASTRER / QQYHRLPLS gave 34 nM (6 of 6 replicates).
Variant YLSQSVEYESRNKNSVA / NASTREY / QQYHRLPLA gave 5.8 nM (1 of 6 replicates).
Variant KSSQSVLYESRNSNSVA / WASTGES / QQYHRLPLS gave no signal (0 of 6 replicates).
Variant KISQSVLYESNNKNSVA / AASTPES / QQYHRLPLS gave 26 nM (6 of 6 replicates).
Variant KMSQSVLNESRNKNSVA / DASTRES / QQYHRLPLS gave 770 pM (6 of 6 replicates).
Variant KLEQSDLYESRNKNSVA / NASTRES / QQYHRLPLS gave 5.9 nM (6 of 6 replicates).
Variant KLSQSVELQSRNKNAVA / SASTRES / QQYHRLPLS gave 1.9 nM (6 of 6 replicates).
Variant KSSQSVLYESRNKNSVA / DAYTRES / QQYHRLPLS gave 1.7 nM (6 of 6 replicates).
Variant KVSQSVLYESRNKNSVA / DASTRED / QQYHRLPLS gave 400 pM (6 of 6 replicates).
Variant KLQQSELYESRNKNSVA / SASTRCS / QQYHRLPLS gave 630 pM (6 of 6 replicates).
Variant KSQQSWLYESRNKNSVA / NASQRLS / QQYHRLPLS gave 1.0 nM (6 of 6 replicates).
Variant HLSQSVPYESRNKNSVA / NASTRES / QQYHRLPLS gave 390 pM (6 of 6 replicates).
Variant KSSQSLLYEDRNKNSVA / WASTLES / QQYHRLPLS gave 11 nM (6 of 6 replicates).
Variant KSSQSWLYESRNKWSVA / GASTRES / QQYHRLPLS gave 9.9 nM (6 of 6 replicates).
Variant KSSQSWLYESNNKNSVA / WGSTRES / QQYHWLPLI gave no signal (0 of 6 replicates).
Variant KSSQSVLYEMRFKNSVA / WASTRES / QQYHRLPLS gave no signal (0 of 6 replicates).
Variant KVDQSQLYESRNKNSVA / QASTRES / QQYHRLPLS gave 620 pM (6 of 6 replicates).
Variant MNSQSVLNESDDKNSVA / WASTRES / QQYHRLPLS gave 400 nM (2 of 6 replicates).
Variant KVSQSMLYESRNKNSVA / DASTRES / QSYHRLPLS gave 560 pM (6 of 6 replicates).
Variant KSSQSVLFESPNKNSVA / DASTRES / QQYHRLPLS gave 900 pM (6 of 6 replicates).
Variant KLSQSEEYESRNKNSVA / NASTRLS / QQYHRLPLS gave 580 pM (6 of 6 replicates).
Variant KLSQSVEYESRDKNSVA / QAQTRLS / QQYHRLPLS gave 1.8 nM (6 of 6 replicates).
Variant KSAQSDLNESRNFNSVA / DASTRES / QQYHRLPLS gave 1.2 nM (6 of 6 replicates).
Variant KHPQSVLYESRNKNSVA / HASTRED / QSYHRLPLS gave 890 pM (6 of 6 replicates).